Earlier results as cited in publication PMC11019746, “Illuminating Neuropeptide Y Y4 Receptor Binding: Fluorescent Cyclic Peptides with Subnanomolar Binding Affinity as Novel Molecular Tools” (ACS Pharmacology & Translational Science, 2024).

Chains of the proteins cited; added tags and fusions are not shown.
UniProt P49146, whole entry: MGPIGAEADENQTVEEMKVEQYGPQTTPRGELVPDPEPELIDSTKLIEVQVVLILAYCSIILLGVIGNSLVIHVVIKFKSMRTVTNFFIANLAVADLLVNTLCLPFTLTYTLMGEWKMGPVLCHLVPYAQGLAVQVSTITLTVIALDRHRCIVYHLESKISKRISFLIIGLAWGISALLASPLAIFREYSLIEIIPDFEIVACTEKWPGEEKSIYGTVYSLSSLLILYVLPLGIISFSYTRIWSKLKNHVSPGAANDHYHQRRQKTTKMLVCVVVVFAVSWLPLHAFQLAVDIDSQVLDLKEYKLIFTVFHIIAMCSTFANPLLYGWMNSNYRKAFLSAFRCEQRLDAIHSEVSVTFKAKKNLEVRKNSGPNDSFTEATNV
UniProt Q15761, whole entry: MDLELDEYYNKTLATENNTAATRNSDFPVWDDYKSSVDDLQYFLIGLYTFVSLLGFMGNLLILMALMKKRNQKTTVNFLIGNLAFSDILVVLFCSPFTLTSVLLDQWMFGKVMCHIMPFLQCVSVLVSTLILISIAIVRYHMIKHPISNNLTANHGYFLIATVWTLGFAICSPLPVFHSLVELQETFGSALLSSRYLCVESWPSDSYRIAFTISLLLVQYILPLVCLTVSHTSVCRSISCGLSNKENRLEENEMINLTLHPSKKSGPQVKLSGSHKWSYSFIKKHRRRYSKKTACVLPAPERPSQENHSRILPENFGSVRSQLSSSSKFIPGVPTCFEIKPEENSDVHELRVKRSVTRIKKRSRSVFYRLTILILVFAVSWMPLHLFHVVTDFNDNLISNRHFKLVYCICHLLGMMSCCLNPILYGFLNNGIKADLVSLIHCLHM
UniProt P25929, whole entry: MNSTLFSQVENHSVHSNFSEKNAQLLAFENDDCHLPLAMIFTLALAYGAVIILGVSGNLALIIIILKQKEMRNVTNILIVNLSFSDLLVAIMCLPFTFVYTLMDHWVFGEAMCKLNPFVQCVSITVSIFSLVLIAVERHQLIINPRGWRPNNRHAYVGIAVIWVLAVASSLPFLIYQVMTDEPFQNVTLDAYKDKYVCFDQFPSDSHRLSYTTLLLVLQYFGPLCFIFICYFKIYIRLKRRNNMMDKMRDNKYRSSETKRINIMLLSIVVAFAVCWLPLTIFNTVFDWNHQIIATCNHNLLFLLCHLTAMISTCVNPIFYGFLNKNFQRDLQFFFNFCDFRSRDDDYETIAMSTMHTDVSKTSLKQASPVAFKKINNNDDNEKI
UniProt P50391, whole entry: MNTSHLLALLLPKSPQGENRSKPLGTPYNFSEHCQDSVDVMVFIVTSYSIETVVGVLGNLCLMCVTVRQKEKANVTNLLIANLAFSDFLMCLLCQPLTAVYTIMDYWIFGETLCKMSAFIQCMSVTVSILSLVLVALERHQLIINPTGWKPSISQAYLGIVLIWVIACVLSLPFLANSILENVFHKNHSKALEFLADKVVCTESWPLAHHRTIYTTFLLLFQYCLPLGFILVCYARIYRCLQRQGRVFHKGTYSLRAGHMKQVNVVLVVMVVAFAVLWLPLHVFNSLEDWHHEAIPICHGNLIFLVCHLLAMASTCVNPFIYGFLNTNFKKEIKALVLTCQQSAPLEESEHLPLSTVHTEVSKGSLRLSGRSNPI

Legend:
hY2R = hY2R (Homo sapiens, UniProt P49146); conditions: cited from earlier work; for Ki: read-out: Ki hY2R
hY5R = hY5R (Homo sapiens, UniProt Q15761); conditions: cited from earlier work
hY1R = hY1R (Homo sapiens, UniProt P25929); conditions: cited from earlier work
hY4R = hY4R (Homo sapiens, UniProt P50391); conditions: relative to 1 μM hPP (100%); cited from earlier work

CC(C)C[C@H](NC(=O)[C@@H]1CCCNC(N)=NC(=O)NCCCCNC(=O)[C@H](NC(=O)CCCN)CC(=O)N[C@@H](CCCNC(=N)N)C(=O)N[C@@H](Cc2ccc(O)cc2)C(=O)N1)C(=O)N[C@@H](CCCNC(=N)N)C(=O)N[C@@H](Cc1ccc(O)cc1)C(N)=O (single isomer, unassigned)
pKi ± SEM hY2R (hY2R): 6.04 ± 0.07 | Ki (hY2R): 950 nM | pKi hY5R (hY5R): 6 | pKi hY1R (hY1R): 6

CC(C)C[C@H](NC(=O)[C@@H]1CCCNC(=N)NC(=O)NCCCCNC(=O)CCC(=O)N[C@@H](CCCNC(=N)N)C(=O)N[C@@H](Cc2ccc(O)cc2)C(=O)N1)C(=O)N[C@@H](CCCNC(=N)N)C(=O)N[C@@H](Cc1ccc(O)cc1)C(N)=O
pKi hY2R (hY2R): 5 | Ki (hY2R): > 10000 nM | pKi hY5R (hY5R): 5.5 | Ki (hY5R; read-out: Ki hY5R): > 3000 nM | Ca2+-aequorin Emax ± SEM (hY4R): 81 ± 1 ^c % | pKi hY1R (hY1R): 5.5 | Ki (hY1R; read-out: Ki hY1R): > 3000 nM

Marks after values point to notes of the source that are not given here.
